Assay [1] concerns the target Dual specificity protein kinase CLK4 (Mus musculus, UniProt O35493). Nature of the assay: Inhibition of mouse recombinant GST-tagged CLK4 expressed in Escherichia coli using GRSRSRSRSRSR as substrate and [gamma33P]ATP after 30 mins by scintillation counting. Summed up:
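Panel of purified kinases (recombinant from several species plus native enzymes), each assayed radiometrically over a range of inhibitor concentrations; IC50 in μM calculated from the dose-response curves.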

Protein sequences, listed by entry. Tags and fused reporters are not part of them. Lines headed by an entry give the natural chain unless they say otherwise; changes in a name come on top.
UniProt O35493: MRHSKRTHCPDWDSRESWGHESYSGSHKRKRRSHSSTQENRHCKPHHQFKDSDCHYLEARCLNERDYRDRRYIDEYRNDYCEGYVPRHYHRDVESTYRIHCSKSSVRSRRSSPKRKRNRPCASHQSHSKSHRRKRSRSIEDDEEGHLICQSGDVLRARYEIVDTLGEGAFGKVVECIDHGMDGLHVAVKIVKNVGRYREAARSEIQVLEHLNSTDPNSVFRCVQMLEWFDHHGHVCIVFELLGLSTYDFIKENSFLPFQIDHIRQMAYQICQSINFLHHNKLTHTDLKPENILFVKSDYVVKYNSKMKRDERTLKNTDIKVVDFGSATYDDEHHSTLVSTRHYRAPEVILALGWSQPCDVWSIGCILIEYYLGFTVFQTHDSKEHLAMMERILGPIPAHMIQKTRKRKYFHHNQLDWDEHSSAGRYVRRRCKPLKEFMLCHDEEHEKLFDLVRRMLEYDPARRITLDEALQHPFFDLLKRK
UniProt P49759: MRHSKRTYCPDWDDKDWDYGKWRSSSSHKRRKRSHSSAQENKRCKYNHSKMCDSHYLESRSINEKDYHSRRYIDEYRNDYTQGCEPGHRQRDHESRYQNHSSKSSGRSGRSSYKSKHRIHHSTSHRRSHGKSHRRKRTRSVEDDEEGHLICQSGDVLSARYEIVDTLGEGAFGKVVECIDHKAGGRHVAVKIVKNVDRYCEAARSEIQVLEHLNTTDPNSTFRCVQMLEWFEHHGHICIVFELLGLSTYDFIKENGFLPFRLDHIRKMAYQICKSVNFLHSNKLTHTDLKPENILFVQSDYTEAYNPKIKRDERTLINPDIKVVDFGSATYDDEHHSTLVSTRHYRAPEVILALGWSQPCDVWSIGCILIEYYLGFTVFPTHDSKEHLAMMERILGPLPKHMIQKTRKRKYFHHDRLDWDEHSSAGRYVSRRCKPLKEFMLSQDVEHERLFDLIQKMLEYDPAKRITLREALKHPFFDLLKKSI
UniProt P49760, whole entry: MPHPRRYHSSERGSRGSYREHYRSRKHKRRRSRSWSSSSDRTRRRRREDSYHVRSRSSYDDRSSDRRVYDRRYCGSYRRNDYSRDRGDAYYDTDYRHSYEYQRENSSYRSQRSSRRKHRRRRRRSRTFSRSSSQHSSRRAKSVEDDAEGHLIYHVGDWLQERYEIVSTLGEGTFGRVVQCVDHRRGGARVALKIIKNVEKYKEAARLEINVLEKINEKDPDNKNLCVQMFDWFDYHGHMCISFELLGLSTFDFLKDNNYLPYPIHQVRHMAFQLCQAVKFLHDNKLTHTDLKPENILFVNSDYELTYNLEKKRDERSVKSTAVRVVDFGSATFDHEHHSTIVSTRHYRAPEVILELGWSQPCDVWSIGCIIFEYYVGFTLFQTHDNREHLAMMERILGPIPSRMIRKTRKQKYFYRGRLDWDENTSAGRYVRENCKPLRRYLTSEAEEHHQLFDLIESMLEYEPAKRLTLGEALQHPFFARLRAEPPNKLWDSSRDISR
UniProt Q00535, whole entry: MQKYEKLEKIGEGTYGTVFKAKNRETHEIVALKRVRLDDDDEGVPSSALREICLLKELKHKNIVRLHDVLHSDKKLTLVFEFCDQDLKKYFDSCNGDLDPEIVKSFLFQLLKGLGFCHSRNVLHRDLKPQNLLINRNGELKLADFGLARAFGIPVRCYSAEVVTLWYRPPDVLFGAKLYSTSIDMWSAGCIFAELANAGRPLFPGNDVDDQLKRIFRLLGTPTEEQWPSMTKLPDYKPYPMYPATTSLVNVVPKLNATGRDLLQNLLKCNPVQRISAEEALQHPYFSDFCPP

Assay [2] concerns the target Dual specificity protein kinase CLK1 (Homo sapiens, UniProt P49759). Nature of the assay: Binding affinity to CLK1.
Assay [3] addresses T1, Dual specificity tyrosine-phosphorylation-regulated kinase 3 (Homo sapiens, UniProt O43781).
T1 sequence (O43781 whole entry): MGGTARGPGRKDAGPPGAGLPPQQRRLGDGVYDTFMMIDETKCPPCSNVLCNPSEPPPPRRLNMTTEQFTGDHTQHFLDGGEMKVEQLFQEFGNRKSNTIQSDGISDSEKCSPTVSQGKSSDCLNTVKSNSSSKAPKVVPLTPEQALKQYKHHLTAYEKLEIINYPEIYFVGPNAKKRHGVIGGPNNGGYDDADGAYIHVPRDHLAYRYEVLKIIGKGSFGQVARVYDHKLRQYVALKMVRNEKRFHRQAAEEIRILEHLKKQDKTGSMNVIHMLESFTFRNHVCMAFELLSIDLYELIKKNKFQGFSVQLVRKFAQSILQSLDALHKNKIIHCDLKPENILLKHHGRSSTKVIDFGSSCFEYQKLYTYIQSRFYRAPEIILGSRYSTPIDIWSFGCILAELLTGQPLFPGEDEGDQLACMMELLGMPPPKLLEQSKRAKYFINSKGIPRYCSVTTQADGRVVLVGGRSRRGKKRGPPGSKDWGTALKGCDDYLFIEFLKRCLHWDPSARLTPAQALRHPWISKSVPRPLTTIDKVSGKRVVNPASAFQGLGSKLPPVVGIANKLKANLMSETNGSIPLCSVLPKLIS
Nature of the assay: Inhibition of human recombinant GST-tagged DYRK3 expressed in Escherichia coli using GRSRSRSRSRSR as substrate and [gamma33P]ATP after 30 mins by scintillation counting.

Assay [4] addresses Dual specificity protein kinase CLK2 (Homo sapiens, UniProt P49760).
Assay [5] addresses Cyclin-dependent kinase 5/CDK5 activator 1 (Homo sapiens, UniProt Q00535). Nature of the assay: Inhibition of human recombinant CDK5/p25 using histone H1 as substrate and [gamma33P]ATP after 30 mins by scintillation counting. Type of assay: protein-complex assay.

Structures are written as SMILES. pIC50, pKd: −log10 of the molar value.

Broadly, the pIC50 is −log10 of the IC50, conventionally taken in molar units. Broadly, the pKd is the Kd on a negative log10 scale, so that one unit is a factor of ten. A low value points to a high Kd.

As for `O=C1NC(Nc2ccccc2)=N/C1=C\c1ccc2c(c1)OCO2`, the pIC50 was 7.19 in assay [1] and 6.49 in assay [3]. The values for the pKd in assay [2] and in assay [4] were 7.12 and 6.44, respectively.

For the compound `COc1ccc2c(c1)[nH]c1c(C)nccc12` [HARMINE], the pIC50 in assay [5] was 5.10.

These data come from ChEMBL document CHEMBL2176911 (J Med Chem, 2012).
